Results from US20210252032A1, “DRUGS FOR GRP78 CELL SURFACE TRANSLOCATION AND PAR-4 SECRETION” (University of Kentucky Research Foundation, priority 2020, published 2021).

System: tyrosine-protein kinase SRC
Test: SRC activation (FIG. 3)
Assay type: cell-based
Conditions: lung cancer cells
Text: Dephosphorylation of Y530 by phosphatases results in autophosphorylation of SRC at Y419, leading to activation. SRC activation triggers a signaling cascade that prevents retrograde trafficking of proteins from the Golgi to the ER and promotes GRP78 translocation from the Golgi to the cell surface.

C[C@@H](Oc1cc(-c2cnn(C3CCNCC3)c2)cnc1N)c1c(Cl)ccc(F)c1Cl [CZT, Crizotinib]
activation of SRC: cause the activation of SRC
